The target in this assay is T1, ERbeta receptor (PanVera) (Homo sapiens, UniProt Q92731).
T1 construct: purchased PanVera
The assay can be described thus: ER competition binding assay (3H-Estradiol), ERbeta. Particulars: IC50 converted to Ki by Cheng-Prusoff; 3H-Estradiol competition; A = class at 10 microMolar; read-out: Ki (ERβ). On the procedure: Competition binding assay is run in a buffer containing 50 mM Hepes, pH 7.5, 1.5 mM EDTA, 150 mM NaCl, 10% glycerol, 1 mg/ml ovalbumin and 5 mM DTT, using 0.025 μCi per well ^3H-Estradiol(NEN #NET517 at 118 Ci/mmol, 1 mCi/ml), 10 ng/well ERAlpha or ERbeta receptor (PanVera). Competing compounds are added at 10 different concentrations. Non-specific binding is determined in the presence of 1 μM of 17-B Estradiol. The binding reaction (140 μl) is incubated for 4 hours at room temperature, then 70 μl of cold DCC buffer is added to each reaction (DCC buffer contains per 50 ml of assay buffer, 0.75 g of charcoal (Sigma) and 0.25 g of dextran (Pharmacia)). Plates are mixed 8 minutes on an orbital shaker at 4° C. Plates are then centrifuged at 3,000 rpm at 4° C. for 10 minutes. An aliquot of 120 μl of the-mix is transferred to another 96-well, white flat bottom plate (Costar) and 175 μl of Wallac Optiphase “Hisafe 3” scintillation fluid is added to each well. Plates are sealed and shaken vigorously on an orbital shaker. After an incubation of 2.5 hrs, read plates in a Wallac Microbeta counter. […] The Kd for ^3H-Estradiol is determined by saturation binding to ER alpha and ER beta receptors. The IC50 values for compounds are converted to Ki using Cheng-Prusoff equation and the Kd determined by saturation binding assay.

By UniProt entry, the sequences of proteins in these tests, tags left out.
UniProt Q92731, whole entry: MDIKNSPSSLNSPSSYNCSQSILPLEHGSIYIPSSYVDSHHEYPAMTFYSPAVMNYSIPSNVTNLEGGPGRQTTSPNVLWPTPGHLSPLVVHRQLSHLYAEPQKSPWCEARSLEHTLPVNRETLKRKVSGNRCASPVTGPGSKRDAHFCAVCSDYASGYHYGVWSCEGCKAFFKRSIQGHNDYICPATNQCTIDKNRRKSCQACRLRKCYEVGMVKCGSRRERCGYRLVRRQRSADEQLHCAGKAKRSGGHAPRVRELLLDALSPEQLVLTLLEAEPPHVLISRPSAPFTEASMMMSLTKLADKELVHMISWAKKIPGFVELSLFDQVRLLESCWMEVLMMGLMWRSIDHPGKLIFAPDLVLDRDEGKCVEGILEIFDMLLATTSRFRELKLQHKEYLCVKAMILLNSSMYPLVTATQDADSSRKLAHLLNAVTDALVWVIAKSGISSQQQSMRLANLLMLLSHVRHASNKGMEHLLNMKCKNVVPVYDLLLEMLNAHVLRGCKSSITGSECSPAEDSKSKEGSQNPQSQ

Take `O=C(c1ccc(OCCN2CCCCC2)cc1)N1c2ccc(O)cc2CCC1c1ccccc1` (stereo not shown) [Example 4]: the Ki was found to be 376 nM.

(Values after patent publication US7056931B2, “2-substituted 1,2,3,4-tetrahydroquinolines and derivatives thereof, compositions and methods” (Eli Lilly and Company, priority 2001, dated 2006).)
